Assays:
[1] = In vitro liver microsomal stability, human liver microsomes; details: 1 μM, 0.5 mg/mL, NADPH, up to 60 minutes
[2] = In vitro liver microsomal stability, mouse liver microsomes

Row | Structure (SMILES) | CLint(liver) [1] [mL/min/kg] | T1/2 [1] [h] | CLint(liver) [2] [mL/min/kg] | T1/2 [2] [h] | half-life at 1 μM [2] [h]
1 | CNC(=O)c1ccc(N2CCN(Cc3ccc4c([nH]c(=O)c5cccnc54)c3F)CC2)c(F)n1 [Compound 15] | <8.6 | >2.42 | 74 | 1.28 | –
2 | [2H]C([2H])([2H])NC(=O)c1ccc(N2CCN(Cc3ccc4c([nH]c(=O)c5cccnc54)c3F)CC2)c(F)n1 [Compound 29] | – | – | – | – | > 2.42
